{"sequences": {"note": "The chains behind the UniProt entries cited, without tags or fusion partners.", "UniProt Q8VUP7, entry or part of it": "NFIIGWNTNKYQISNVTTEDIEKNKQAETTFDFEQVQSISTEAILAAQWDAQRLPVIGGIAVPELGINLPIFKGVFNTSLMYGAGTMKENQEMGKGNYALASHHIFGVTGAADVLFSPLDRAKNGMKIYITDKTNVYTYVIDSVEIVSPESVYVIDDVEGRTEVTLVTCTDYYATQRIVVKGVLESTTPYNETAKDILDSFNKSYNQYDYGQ"}, "source": "paper PMC5358767", "about": "“Streptococcus suis sortase A is Ca^2+ independent and is inhibited by acteoside, isoquercitrin and baicalin” (PLoS ONE, 2017)", "biological_target": "T1, Sortase A (Ss-SrtA) (Streptococcus suis, UniProt Q8VUP7)", "T1 construct": "residues N24-Q235, C-terminal His-tag", "assay": "fluorescence-quenched peptide (abz-LPATG-dnp) hydrolysis assay with recombinant enzyme", "format": "biochemical", "data": [{"smiles": "O=c1c(O[C@@H]2O[C@H](CO)[C@@H](O)[C@H](O)[C@H]2O)c(-c2ccc(O)c(O)c2)oc2cc(O)cc(O)c12", "note": "[isoquercitrin]", "values": [{"measurement": "IC50", "value": "100 ± 1.3", "unit": "µM"}]}]}
